Measurements taken from US20230190717A1, “P38 GAMMA INHIBITORS AND METHOD OF USE THEREOF” (City of Hope, priority 2017, published 2023).

Biological target: T1, p38 γ (Homo sapiens, UniProt P53778)
T1 sequence (P53778 1-367): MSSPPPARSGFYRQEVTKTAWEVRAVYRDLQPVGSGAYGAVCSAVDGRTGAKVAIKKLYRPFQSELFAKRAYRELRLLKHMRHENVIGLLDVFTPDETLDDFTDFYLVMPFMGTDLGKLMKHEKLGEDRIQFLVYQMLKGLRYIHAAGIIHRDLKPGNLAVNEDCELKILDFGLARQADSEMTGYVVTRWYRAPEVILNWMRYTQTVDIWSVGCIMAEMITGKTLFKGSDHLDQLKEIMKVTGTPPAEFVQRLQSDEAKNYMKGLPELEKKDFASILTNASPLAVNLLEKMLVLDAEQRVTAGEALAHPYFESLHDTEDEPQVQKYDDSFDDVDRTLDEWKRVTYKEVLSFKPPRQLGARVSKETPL
Experiment: ADP-Glo in vitro kinase assay, p38γ
Type: biochemical
Set-up: human recombinant p38 α, β, γ or δ protein (active full-length); purchased SignalChem; host or cells: baculovirus in Sf9 insect cells

**Q.** For `Cc1ccc([N+](=O)[O-])cc1S(=O)(=O)N(C)/N=C/c1cnc2ccc(Br)cn12` [Compound 1], which IC50 (IC50 p38γ kinase activity, ADP-Glo) is on record?
**A.** 0.0041 to 0.029 µM

**Q.** And the IC50 (IC50 value, 10 μM ATP)?
**A.** 0.028 µM

**Q.** And the IC50 (IC50 value, 100 μM ATP)?
**A.** 0.1 µM

**Q.** What about the IC50 (IC50 value, 250 μM ATP) of the same molecule?
**A.** 0.34 µM

**Q.** And the Ki (Ki, Ki=IC50/(S/KM+1))?
**A.** ~0.019 µM

**Q.** What about the Ki (estimated Ki for inhibiting p38γ enzymatic activity, based on IC50 and enzyme concentration used) of the same molecule?
**A.** 0.01 µM
